Hits are enriched below; roughly 4.2% of the tested compounds scored in any of these assays.
MC4R antag cAMP – blocks human MC4R cAMP signaling; MC4R-expressing cells, MTII-stimulated cAMP, LANCE TR-FRET; P32245; 360,000 compounds, 0.48% hits; inhibition, % at 6.5 µM;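 active = inhibition above its plate's cutoff, the mean of tested wells on that plate plus 3 SD, cut at about 29% in these data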;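 note: 0% = Melanotan II alone and 100% = Melanotan II plus saturating MCL0020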
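System: U2OS cells stably expressing human melanocortin 4 receptor (MC4R). Reagent: Melanotan II challenge after compound preincubation. Doses: 6.5 µM. Times: 30-min compound, 1-h challenge, 1-h detection, room temperature. Measured by: TR-FRET with Eu-cAMP and labeled anti-cAMP, 671 nm. Replicates: singlicate.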
HDAC3 inhib – blocks human histone deacetylase 3; recombinant HDAC3, fluorogenic peptide/trypsin coupled, fluorescence; inhibition, % at 8.3 µM; 320,000 compounds, 0.15% hits; AID 2718; in the data active = inhibition above about 26%, passing the limit was not always enough
MC4R ag barr – activates human MC4R beta-arrestin recruitment; U2OS MC4R beta-arrestin complementation, luminescence; percent of melanotan II response, DMSO zero; activation, % at 8.9 µM; 360,000 compounds, 0.98% hits;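 active = activation above a per-plate cutoff, the mean activation of sample wells on that plate plus 3 SD, cut at about 8% in these data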
NALP1 yeast inh – inhibitors of NALP1 inflammasome in yeast; inhibition, % at 10 µM; 280,000 compounds, 0.61% hits; S. cerevisiae NALP1/ASC/caspase-1 growth, X-gal OD620, 72 h; in the data active = inhibition mostly above about 24%, no sharp cut-off; inactive = mostly below about 32%
UUG fidelity – yeast start codon fidelity modulation; AID 602363; activity score, % at 18.7 µM; S. cerevisiae UUG-firefly luciferase reporter, luminescence/redox ratio; 0.13% of 350,000 active;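 active means replicate mean at a twofold rise or more, about +100% in these data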;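 further: firefly luciferase made from a UUG start codon reports start codon fidelity; reporter light over untreated wells divided by growth signal over untreated wells; some hits fall short of that in this replicate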
ALR inh – human ALR oxidase inhibition via reduced H2O2; P55789; purified ALR, DTT oxidation, H2O2 HRP-luminol luminescence; inhibition, % (concentration not given with the values); 3.8% of 290,000 active; AID 485317;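 active = mean and each replicate at 75% or more; inconclusive = only one of the two met; inactive = neither met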;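 note: stock transfer was 7.5 nL into about 7.5 µL; 0% = neutral wells and 100% = wells with inactivated enzyme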
cAMP nonselect – counter-screen for MC4R antagonists: nonselective cAMP signaling inhibitors; 1,600 compounds, 26% hits; parental U2OS, forskolin cAMP, LANCE TR-FRET; shares compounds with MC4R antag cAMP; inhibition, % at 6.5 µM;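 active = mean inhibition over triplicates above the low-control well mean plus 3 SD, set per campaign, cut at about 13% in these data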;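 note: signal is single emission at 671 nm which falls as cellular cAMP rises; 0% = forskolin-stimulated wells and 100% = buffer without forskolin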
MC4R antag conf – human MC4R cAMP antagonism confirmation. 1,600 compounds, 27% hits. shares compounds with MC4R antag cAMP. MC4R-expressing cells, MTII-stimulated cAMP, TR-FRET. inhibition, % at 6.5 µM; in the data active = inhibition above about 29%;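 note: 0% = agonist stimulated wells alone and 100% = agonist stimulated wells plus saturating reference antagonist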
The depositor's hits bear a star; · = no result.

Structure	MC4R antag conf	MC4R antag cAMP	NALP1 yeast inh	MC4R ag barr	UUG fidelity	HDAC3 inhib	ALR inh	cAMP nonselect
CNC[C@@H]1OCCCC[C@H](C)Oc2ccc(NC(=O)Cc3ccccc3)cc2C(=O)N([C@H](C)CO)C[C@@H]1C	·	·	·	·	11.3	·	·	·
COc1ccccc1C(=O)NC(CCSC)C(=O)OCC(=O)N1CCCC1=O (stereo not drawn)	41.8*	28.6*	·	-1.9	5.0	1.3	·	17.1*
CSCCC(NC(=O)c1ccc(Cl)cc1)C(=O)OCC(=O)N1CCCC1=O (stereo not drawn)	·	14.6	·	-2.6	5.9	-4.9	-4.5	·
COc1ccccc1NC(=O)CSc1nnnn1C1CCCCC1	2.9	29.8*	-3.4	3.1	-14.1	0.4	-9.1	0.9
O=S(=O)(NCC1CCCO1)c1cnc(Cl)c(Br)c1 (stereo not drawn)	43.3*	28.5*	26.8	-2.6	7.6	-11.6	3.4	19.0*
O=C(N[C@H]1C=C[C@H](CC(=O)N2CCOCC2)O[C@H]1CO)c1ccccn1	·	·	·	·	-11.2	·	·	·
O=C(CNS(=O)(=O)c1ccccc1)NNC(=O)C(Cl)Cl	-12.8	28.6*	-1.9	-2.0	-13.5	4.8	-0.4	-4.8
O=C(Nc1ccccc1F)N[C@H]1CC[C@@H](CC(=O)N2CCCCC2)O[C@H]1CO	·	·	·	·	13.3	·	·	·
CCCN(CC(=O)Nc1ccccc1C)CC(=O)Nc1ccc(Br)cc1F	3.0	28.7*	30.0	1.6	-8.6	0.8	18.8	0.3
Cc1ccc(S(=O)(=O)N(C)C[C@@H]2OCCCC[C@H](C)Oc3ccc(NS(=O)(=O)c4cn(C)cn4)cc3C(=O)N([C@@H](C)CO)C[C@@H]2C)cc1	·	·	·	·	0.3	·	·	·
Cc1ccsc1C(=O)OCC(=O)Nc1ccc(Cl)cc1C(F)(F)F	·	16.3	30.1	0.9	·	2.8	-4.2	·
Cc1ccc(C(=O)NCC(=O)OCC(=O)Nc2ccc(Cl)cc2C(F)(F)F)cc1C	17.6	28.8*	22.6	3.6	·	·	·	6.3
COC(=O)C(Cc1ccc(O)cc1)NC(=O)C1CCN(S(=O)(=O)c2ccc(C)cc2)CC1 (stereo not drawn)	31.3*	29.8*	13.8	-1.3	4.7	2.8	4.5	17.7*
COc1ccc(CN(C)C[C@@H]2Oc3c(NS(=O)(=O)c4ccc(C)cc4)cccc3C(=O)N([C@@H](C)CO)C[C@H]2C)cc1	·	·	·	·	34.8	·	·	·
OCCN1CCN(c2cc(-c3ccccc3)c3ccccc3n2)CC1	-7.6	40.8*	30.9	0.0	·	-0.1	-1.6	-2.8
CN1CCN(c2nc(N3CCN(CCO)CC3)nc3ccccc23)CC1	·	-4.8	25.3	-1.7	-9.8	-17.0	0.0	·
COc1ccc(CN(C)C[C@@H]2Oc3c(NS(=O)(=O)c4c(C)noc4C)cccc3C(=O)N([C@H](C)CO)C[C@@H]2C)cc1	·	·	·	·	-12.1	·	·	·
COc1ccc(C[C@@H]2OC3(C=CC(=O)C=C3)O[C@H]2Cc2ccc(OC)cc2)cc1	34.4*	60.3*	·	-2.6	·	·	·	35.5*
COC(=O)C(CC(C)C)NC(=O)/C=C/c1ccc(Cl)cc1 (stereo not drawn)	20.4	34.6*	9.4	2.1	·	-0.3	-3.7	7.3
CC(C)(C)NC(=O)N1CCn2cccc2C1c1ccccc1F (stereo not drawn)	1.3	30.4*	-5.0	0.9	·	-0.1	19.1	3.6
O=S(=O)(c1cccnc1)N1CCn2cccc2C1c1ccccc1F (stereo not drawn)	·	7.1	·	-3.0	-0.7	1.1	0.6	·
O=C(c1ccccn1)N1C[C@@H]2[C@H](c3ccccc31)[C@H](CO)N2C(=O)c1ccccn1	·	·	·	·	-7.5	·	·	·
C[C@@H]1CN([C@@H](C)CO)C(=O)c2cccc(NC(=O)Nc3ccc(F)cc3)c2O[C@@H]1CN(C)CC1CC1	·	·	·	·	2.7	·	·	·
C[C@@H]1CN([C@H](C)CO)C(=O)c2cc(-c3ccc(F)cc3)cnc2O[C@H]1CN(C)Cc1ccc(F)cc1	·	·	·	·	8.0	·	·	·
COC(=O)c1cc(S(=O)(=O)n2nc(C)c(Br)c2C)c(Cl)cc1Cl	20.3	30.2*	-0.7	-2.3	-11.7	-3.5	5.3	6.0
O=S(=O)(c1ccc(F)cc1)N1CCN(c2nc(-c3cccnc3)nc3ccccc23)CC1	23.3	29.8*	·	3.5	-7.3	8.4	8.6	6.1
Nc1ccc(C(=O)NN2C(=O)[C@H](Cl)C2c2ccc(Cl)cc2)cc1 (stereo partly drawn)	19.3	36.6*	·	-0.5	·	·	·	21.6*
CCNC(=O)CC1C(=O)N(C)C(=S)N1NC(=O)c1ccc(Cl)cc1 (stereo not drawn)	·	4.7	1.0	0.4	-20.0	-1.0	-1.6	·
CC1CCN(S(=O)(=O)c2cnc(Cl)c(Br)c2)CC1	41.0*	40.9*	34.1	-0.4	·	-0.1	-1.5	15.2*
CC1CCCCN1S(=O)(=O)c1csc(C(N)=O)c1 (stereo not drawn)	·	1.1	8.3	1.5	-13.5	0.9	1.1	·

Reprinted at random: 4 records from the list.
Structure	MC4R antag conf	MC4R antag cAMP	NALP1 yeast inh	MC4R ag barr	UUG fidelity	HDAC3 inhib	ALR inh	cAMP nonselect
Cc1ccc(C(=O)NCC(=O)OCC(=O)Nc2ccc(Cl)cc2C(F)(F)F)cc1C	17.6	28.8*	22.6	3.6	·	·	·	6.3
O=S(=O)(NCC1CCCO1)c1cnc(Cl)c(Br)c1 (stereo not drawn)	43.3*	28.5*	26.8	-2.6	7.6	-11.6	3.4	19.0*
C[C@@H]1CN([C@@H](C)CO)C(=O)c2cccc(NC(=O)Nc3ccc(F)cc3)c2O[C@@H]1CN(C)CC1CC1	·	·	·	·	2.7	·	·	·
CC1CCN(S(=O)(=O)c2cnc(Cl)c(Br)c2)CC1	41.0*	40.9*	34.1	-0.4	·	-0.1	-1.5	15.2*

Remaining list, next part
Structure	MC4R antag conf	MC4R antag cAMP	NALP1 yeast inh	MC4R ag barr	UUG fidelity	HDAC3 inhib	ALR inh	cAMP nonselect
CC1CCCCN1S(=O)(=O)c1cnc(Cl)c(Br)c1 (stereo not drawn)	16.5	33.3*	58.2	-1.2	·	1.7	2.5	12.8
CC(C)C1CC(CCNCc2ccc3c(c2)OCO3)(c2ccccc2)CCO1 (stereo not drawn)	40.8*	33.5*	·	2.6	·	10.9	-1.7	0.1
C[C@@H]1CCCCO[C@H](CN(C)Cc2ccc3c(c2)OCO3)[C@@H](C)CN([C@H](C)CO)C(=O)c2cc(NC(=O)Nc3ccccc3)ccc2O1	·	·	·	·	15.4	·	·	·
COc1cccc(C(c2c(N)n(C)c(=O)n(C)c2=O)C(C)[N+](=O)[O-])c1 (stereo not drawn)	4.1	32.7*	·	-0.1	·	9.8	0.7	5.5
CC(C)C(CO)NC(=O)CC(=O)NC(CO)C(C)C (stereo not drawn)	-9.6	29.9*	-4.5	1.3	-17.5	-6.1	0.5	-1.0
c1ccc(Cn2c(CNc3nc4ccccc4n3CCN3CCCCC3)nc3ccccc32)cc1	27.8	29.1*	-17.4	-3.2	-23.1	3.1	2.3	-4.8
CCN(CC)CCn1c(NCc2nc3ccccc3n2Cc2ccccc2)nc2ccccc21	·	7.7	8.2	-2.8	·	3.4	-11.6	·
CC(=O)Nc1ccc(C(=O)N2CCCCC2c2cc(C(=O)Nc3ccccc3Cl)no2)cc1 (stereo not drawn)	·	14.1	·	-0.4	0.0	·	·	·
O=C(Nc1ccccc1Cl)c1cc(C2CCCCN2C(=O)c2ccccc2)on1 (stereo not drawn)	-32.9	34.9*	·	1.7	-10.3	·	·	-14.3
CC(C)NC(=O)Nc1ccc2c(c1)C(=O)N([C@H](C)CO)C[C@@H](C)[C@H](CN(C)S(=O)(=O)c1ccc(Cl)cc1)OCCCC[C@H](C)O2	·	·	·	·	1.0	·	·	·
